# From patent publication US10420758B2, “Indolinyl-sulfonamide inhibitors of tankyrase and methods of use thereof” (The Board of Regents of the University of Texas System, priority 2015, dated 2019)
# Assays:
# PARP11 = target: T1, PARP11 (Homo sapiens, UniProt Q9NR21); experiment: PARP profiling, parsylation of immobilized histone; assay type: biochemical
# T1 sequence (Q9NR21 1-338): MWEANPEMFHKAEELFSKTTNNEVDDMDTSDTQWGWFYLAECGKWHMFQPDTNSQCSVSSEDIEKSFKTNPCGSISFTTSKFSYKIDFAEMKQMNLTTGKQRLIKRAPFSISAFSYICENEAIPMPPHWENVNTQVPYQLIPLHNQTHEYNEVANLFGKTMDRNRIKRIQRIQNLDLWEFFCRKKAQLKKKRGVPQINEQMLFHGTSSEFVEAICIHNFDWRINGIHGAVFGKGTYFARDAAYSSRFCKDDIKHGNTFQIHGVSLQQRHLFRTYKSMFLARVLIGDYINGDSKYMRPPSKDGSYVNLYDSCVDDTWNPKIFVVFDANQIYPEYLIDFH
# Procedure: (§1) Performed by BPS Bioscience Inc., San Diego by following the BPS PARP or TNKS assay kit protocols. The enzymatic reactions were conducted in duplicate at room temperature for 1 hr in a 96 well plate coated with histone substrate. […] of reaction buffer (Tris.HCl, pH 8.0) contains NAD^+, biotinylated NAD^+, activated DNA, recombinant PARP enzyme and 10 μM of the test compound. Olaparib used at 20 nM concentration. After enzymatic reactions, 50 μL of Streptavidin-horseradish peroxidase was added to each well and the plate was incubated at room temperature for an additional 30 min. 100 μL of developer reagents were added to wells and luminescence was measured using a BioTek Synergy™ 2 microplate reader.
# PARP7 = target: T2, PARP7 (Homo sapiens, UniProt Q7Z3E1); experiment: PARP profiling, parsylation of immobilized histone; assay type: biochemical
# T2 sequence (Q7Z3E1 1-657): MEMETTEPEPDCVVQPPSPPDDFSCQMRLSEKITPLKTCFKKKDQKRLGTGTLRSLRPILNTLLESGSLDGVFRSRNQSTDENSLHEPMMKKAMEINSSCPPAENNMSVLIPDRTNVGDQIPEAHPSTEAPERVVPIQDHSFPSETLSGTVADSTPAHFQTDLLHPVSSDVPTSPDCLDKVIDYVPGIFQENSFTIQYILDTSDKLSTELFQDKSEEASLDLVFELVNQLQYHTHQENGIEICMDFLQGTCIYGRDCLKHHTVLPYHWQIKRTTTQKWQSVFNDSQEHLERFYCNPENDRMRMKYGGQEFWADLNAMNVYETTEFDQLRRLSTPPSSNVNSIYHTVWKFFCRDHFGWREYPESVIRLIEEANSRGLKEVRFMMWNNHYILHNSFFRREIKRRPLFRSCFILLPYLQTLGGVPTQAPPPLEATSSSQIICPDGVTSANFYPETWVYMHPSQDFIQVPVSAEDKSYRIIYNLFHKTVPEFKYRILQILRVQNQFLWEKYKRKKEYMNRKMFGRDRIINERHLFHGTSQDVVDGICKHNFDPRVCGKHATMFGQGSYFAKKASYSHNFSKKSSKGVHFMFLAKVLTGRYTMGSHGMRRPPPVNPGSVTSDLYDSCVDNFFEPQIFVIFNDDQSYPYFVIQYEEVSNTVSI
# Procedure: as §1
smiles,measurement,setting,value
O=C(c1cc(Cc2n[nH]c(=O)c3ccccc23)ccc1F)N1CCN(C(=O)C2CC2)CC1 [Olaparib],inhibition at 0.02 µM,PARP11,96%
same,inhibition at 0.02 µM,PARP7,87%
